Laboratory results from patent publication US10300071B2, “Compositions and methods for inhibition of mycobacteria” (priority 2014, dated 2019).
≈ marks a conversion by molar mass, not a printed value.

Amino acid sequences for entries named in this document (tags omitted). A change or cut given only in a name is not applied to a line headed by its entry.
UniProt P9WQH5: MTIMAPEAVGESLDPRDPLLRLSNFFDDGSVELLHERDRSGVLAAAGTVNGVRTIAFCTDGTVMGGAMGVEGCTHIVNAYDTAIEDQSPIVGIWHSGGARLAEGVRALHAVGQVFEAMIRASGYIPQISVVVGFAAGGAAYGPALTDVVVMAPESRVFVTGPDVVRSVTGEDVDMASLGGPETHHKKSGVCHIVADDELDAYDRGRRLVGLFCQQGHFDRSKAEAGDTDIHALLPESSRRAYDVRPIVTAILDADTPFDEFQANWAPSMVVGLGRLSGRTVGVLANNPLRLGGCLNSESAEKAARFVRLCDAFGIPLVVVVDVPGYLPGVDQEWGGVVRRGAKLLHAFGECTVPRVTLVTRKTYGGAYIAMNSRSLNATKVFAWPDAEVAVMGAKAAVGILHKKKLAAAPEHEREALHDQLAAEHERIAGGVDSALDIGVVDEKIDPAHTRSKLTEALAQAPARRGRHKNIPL

Key:
Mtb strain mc^2-7000 = assay: microbe, parasite or virus in culture; assay type: cell-based; details: Mycobacterium tuberculosis, 144 h
Mtb AccD6 = Mtb AccD6 (Mycobacterium tuberculosis, UniProt P9WQH5); assay: biochemical

Row | SMILES | MIC (Mtb strain mc^2-7000) [µM] | IC50 (Mtb AccD6) [µM]
1 | Cn1nnc(COc2ccc(Oc3cnc4cc(Cl)ccc4n3)cc2)n1 [NZ-269, 6-chloro-2-{4-[(2-methyl-2H-1,2,3,4-tetrazol-5-yl)methoxy]phenoxy}quinoxaline] | > 50 | 15.8
2 | COC(=O)Cc1ccc(Oc2nc3ccc(Cl)cc3s2)cc1 [NZ-284, methyl 2-{4-[(6-chloro-1,3-benzothiazol-2-yl)oxy]phenyl}acetate] | 4.5 | 17
3 | CONC(=O)[C@@H](C)Oc1ccc(Oc2nc3ccc(F)cc3s2)cc1 [NZ-289, (2R)-2-{4-[(6-fluoro-1,3-benzothiazol-2-yl)oxy]phenoxy}-N-methoxypropanamide] | 0.35 (≈ 0.127 µg/mL) | 6.1
4 | CONC(=O)[C@@H](C)Oc1ccc(Oc2nc3ccc(Cl)cc3o2)cc1 [NZ-296, (2R)-2-{4-[(6-chloro-1,3-benzoxazol-2-yl)oxy]phenoxy}-N-methoxypropanamide] | 3 (≈ 1.09 µg/mL) | 1.8
5 | COC(=O)Cc1ccc(Oc2cnc3cc(Cl)ccc3n2)cc1 [NZ-297, methyl 2-{4-[(6-chloroquinoxalin-2-yl)oxy]phenyl}acetate] | 12 | 10
6 | COC(=O)C(C)c1ccc(Oc2nc3ccc(Cl)cc3s2)cc1 (stereo not shown) [NZ-311, methyl 2-{4-[(6-chloro-1,3-benzothiazol-2-yl)oxy]phenyl}propanoate] | 3 (≈ 1.04 µg/mL) | 10
7 | CC(C)NC(=O)Nc1ccc(Oc2cnc3cc(Cl)ccc3n2)cc1 [NZ-322, 1-{4-[(6-chloroquinoxalin-2-yl)oxy]phenyl}-3-(propan-2-yl)urea] | 12 (≈ 4.28 µg/mL) | 0.092
8 | COC(=O)C(C)c1ccc(Oc2nc3ccc(OC)cc3s2)cc1 (stereo not shown) [NZ-333, methyl 2-{4-[(6-methoxy-1,3-benzothiazol-2-yl)oxy]phenyl}propanoate] | 12 (≈ 4.12 µg/mL) | 12.5
9 | O=C1NCCN1c1ccc(Oc2nc3ccc(Cl)cc3s2)cc1 [NZ-341, 1-{4-[(6-chloro-1,3-benzothiazol-2-yl)oxy]phenyl}imidazolidin-2-one] | 12 (≈ 4.15 µg/mL) | 2.6
10 | CNC(=O)Nc1ccc(Oc2cnc3cc(Cl)ccc3n2)cc1 [NZ-342, 1-{4-[(6-chloroquinoxalin-2-yl)oxy]phenyl}-3-methylurea] | 50 (≈ 16.4 µg/mL) | 0.6
11 | CC(C)NC(=O)Nc1ccc(Oc2nc3ccc([N+](=O)[O-])cc3s2)cc1 [NZ-363, 1-{4-[(6-nitro-1,3-benzothiazol-2-yl)oxy]phenyl}-3-(propan-2-yl)urea] | > 50 | 4.7
